The source of these data is PubChem BioAssay AID1471 (National Center for Advancing Translational Sciences (NCATS), 2008).

The nature of this assay: qHTS Multiplex Assay to Identify Dual Action Probes in a Cell Model of Huntington: Cytoprotection (ATP).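 Also: toxic huntingtin expression switched on by the ecdysone agonist tebufenozide; % of control where 0% means no effect; nearly all actives have a fitted effect of over 45% in size.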 The following applies: PC12 HTT-Q103 induced, ATP luminescence, 40 h. The text has this: NIH Chemical Genomics Center [NCGC]
NIH Molecular Libraries Probe Production centers Network [MLPCN]
Assay Submitter (PI): Wei Zheng
Huntington's disease is a neurodegenerative disorder caused by a trinucleotide repeat expansion in Exon 1 of the Huntingtin gene. The CAG trinucleotide encodes glutamine and polyglutamine expansions cause cell death in selective areas of the brain. Huntington polyglutamine repeats have the tendency to form aggregates which are observable in later stages of the disease. The exact nature of the aggregates, whether toxic, protective, or insignificant, is unclear.
A stable PC12 cell line containing a gene fusion of Exon 1 of the Huntingtin gene linked to GFP under the control of the inducible ecdysone promoter were used as the cell-based model of Huntington Disease for high throughput screening. Exon 1 of the Huntingtin gene contained an expansion of 103 polyglutamines (Q103) which, when expressed, caused cell death and distinct, bright GFP aggregates. The amount of cell death and the size and intensity of GFP aggregates increased over time and induction level. The cell death were quantified with a measurement of ATP content in the cells. A maximal 40-50% of cell death was observed when the Huntington gene was induced in this cell line.
We optimized this assay in a homogeneous 1536 well format. A quantitative high throughput screen (qHTS) was conducted on the PC12 cells which were induced to express the toxic fusion construct. Small molecules which prevented cell death were identified by using a luminescent ATP quantification method (Perkin Elmer's ATPlite).
PC12 cells stably containing a construct with an ecdysone inducible promoter expressing GFP fused to the exon 1 of HTTQ103 (Huntington protein which containing a 103 ployglutamine expansion) were used.
NCGC Assay Protocol Summary:
Sequence, Parameter, Description
1, Reagent, 5 uL 1500 cells/well 1536 TC treated White clear bottom plate
2, Compound, 23 nL Tebufenozide inducer (100 nM final) to all columns
3, Compound, 23 nL 40 uM to 0.5 nM Libraries
5, Reagent, 5 ul ATPLite cell death assay reagent
6, Detector, 4 sec integration with a Viewlux Luminescent
Media consisted of phenol red free DMEM + 5% equine serum (Hyclone # SH30072.03 ), 5% supplemented Bovine Calf Serum (Hyclone # SH30074.03 ), 1x pen/strep, no G418
Control columns: 1 = DMSO, 2= 2 uM teb dilns (1:1), 4 = 100 nM Teb inducer. Sample columns received 100 nM Teb.
A general note: In qHTS, concentration-response curves come from the screen itself.

[1] abbreviates: at 10 µM (top of the series) unless noted.

The entries are a selection whose mix differs from that of the whole data set. The source made the active and inactive calls. Calls follow the shape of the dose curve; as a rule, active = well fitted activation curve with a large enough effect; inconclusive = small, poorly fitted or top-dose-only effect; inactive = no such curve, though single readings can be large or run the other way.

With `Nc1cccc([As](=O)(O)c2ccccc2)c1`, the cytoprotection (ATP increase) under setting [1] was inactive: 3.07%.

As to `O=P1(Nc2ccc(Br)cn2)COc2ccccc2OC1`, under setting [1], the cytoprotection (ATP increase) is inactive: -5.07% [at 0.074 µM].

Take `Cc1ccc(OCC(=O)OC2CN3CCC2CC3)cc1` (stereo not drawn): the cytoprotection (ATP increase) under setting [1] was inactive: 15.7%.

Consider `O=[As](O)(c1cccs1)c1cccs1`, for which, under setting [1], the cytoprotection (ATP increase) was inactive: 8.94%.

`O=P1(Nc2ncccn2)COc2ccccc2OC1`: the cytoprotection (ATP increase) under setting [1] was inactive: -11.5% [at 0.074 µM].

Consider `CN(C)C1(CNC(=O)c2ccc(S(C)(=O)=O)cc2)CCCCC1`, for which, under setting [1], the cytoprotection (ATP increase) is inactive: 12.9%.

As for `O=C(/C=C/c1ccccc1)OC1CN2CCC1CC2` (stereo not drawn), the cytoprotection (ATP increase) under setting [1] is inactive: -1.96%.

Regarding `CC1CCC(C(C)C)C(OP(=O)(Nc2ccccn2)c2ccccc2)C1` (stereo not drawn), under setting [1], the cytoprotection (ATP increase) was inactive: -181% [at 56.4 µM].

For the compound `Cc1nn(-c2ccccc2)c2c1P(=O)(N1CCOCC1)N(C)C(c1ccccc1)=N2` (stereo not drawn), the cytoprotection (ATP increase) under setting [1] was inactive: -3.43%.

Regarding `CN(C(=O)Cc1ccc(Cl)c(Cl)c1)[C@@H]1CCCC[C@H]1N1CCCC1`, the cytoprotection (ATP increase) (at 56.4 µM (top of the series)) is inactive: -81.8%.

`CC(C)/C=N\N=C(\N)N[N+](=O)[O-]`: under setting [1], the cytoprotection (ATP increase) was inactive: -31% [at 56.4 µM].

Take `O=[As](O)(c1ccccc1Br)c1ccccc1Br`: the cytoprotection (ATP increase) under setting [1] is inactive: 14.6%.

Turning to `CC(C)(C)C(=O)NC(Sc1ncccn1)C(Cl)(Cl)Cl` (stereo not drawn), the cytoprotection (ATP increase) under setting [1] is inactive: -8.15%.

As for `Clc1n[nH]nc1-c1nn[nH][15n]1`, the cytoprotection (ATP increase) under setting [1] is inactive: 19.2% [at 56.4 µM].

As for `O=P1(Nc2ccccn2)COc2ccccc2OC1`, the cytoprotection (ATP increase) under setting [1] is inactive: 1.07% [at 56.4 µM].

As for `CN(CCCl)Cc1cc(Cl)c(NC2=NCCN2)c(Cl)c1`, the cytoprotection (ATP increase) is, setting by setting: (at 1.9 µM (top of the series)) inactive: 12.8%; (at 56.4 µM (top of the series)) inactive: -60.7%.

`CCOP(=O)(Nc1ccc(C)cn1)OCC`: the cytoprotection (ATP increase) under setting [1] was inactive: 21%.

As to `COc1cc(C2NCCC3(OCCO3)C2(C)C)cc(OC)c1OC` (stereo not drawn), the cytoprotection (ATP increase) under setting [1] is inactive: 7.83% [at 0.074 µM].

For `CN(C(=O)Cc1ccc(Cl)c(Cl)c1)[C@@H]1CC[C@@]2(CCCO2)C[C@H]1N1CCCC1`, under setting [1], the cytoprotection (ATP increase) was inactive: 6.86% [at 1.9 µM].

With `O=C(CC(=O)c1ccccc1)O[C@H]1CN2CCC1CC2`, the cytoprotection (ATP increase) under setting [1] was inactive: 19.4%.

Regarding `Nc1cccc2c([As](=O)(O)O)cccc12`, under setting [1], the cytoprotection (ATP increase) was inactive: 20.3%.

Regarding `NS(=O)(=O)Cc1ccc([As](=O)(O)O)cc1`, the cytoprotection (ATP increase) under setting [1] is inactive: 4.1%.

Regarding `CCCOP(=S)(Nc1nc(N)cc(=O)[nH]1)OCCC`, the cytoprotection (ATP increase) under setting [1] was inactive: -31.6%.

With `O=[As](O)(c1cccc(O)c1)c1cccc(O)c1`, the cytoprotection (ATP increase) under setting [1] is inactive: 18.6%.

As for `Cc1cccc(OCC(=O)OC2CN3CCC2CC3)c1` (stereo not drawn), under setting [1], the cytoprotection (ATP increase) is inactive: -4.86% [at 56.4 µM].

For `CN(C(=O)Cc1ccc(Cl)c(Cl)c1)[C@@H]1CC[C@]2(CCCO2)C[C@H]1N1CCCC1`, the cytoprotection (ATP increase) under setting [1] is inactive: -45% [at 56.4 µM].

On to `O=C(OC1CN2CCC1CC2)c1ccc(Cl)cc1` (stereo not drawn), for which the cytoprotection (ATP increase) under setting [1] was inactive: 10.7%.

Take `O=[As](O)(O)c1cccnc1`: under setting [1], the cytoprotection (ATP increase) is inactive: 3.39%.

With `CN(C(=O)Cc1ccccc1)[C@@H]1CC[C@]2(CCCO2)C[C@H]1N1CCCC1`, the cytoprotection (ATP increase) under setting [1] is inactive: 17%.

On to `CCOP1(=S)c2c(C)nn(CCC#N)c2N=C(c2ccc(F)cc2)N1C` (stereo not drawn), for which the cytoprotection (ATP increase) under setting [1] was inactive: -4.09%.

On to `O=[N+]([O-])c1ccc2c(c1)nnn2O`, for which, under setting [1], the cytoprotection (ATP increase) is inactive: 0.691% [at 56.4 µM].

For `NC(=O)Nc1ccc([As](=O)(O)O)cc1`, the cytoprotection (ATP increase) is, setting by setting: (at 10 µM (top of the series)) inactive: -9.44%; (at 56.4 µM (top of the series)) inactive: -1.63%.

On to `O=C(O)COc1ccc([As](=O)(O)O)cc1[N+](=O)[O-]`, for which the cytoprotection (ATP increase) under setting [1] is inactive: -11.8%.

As for `Nc1ccccc1[As](=O)(O)c1ccccc1`, under setting [1], the cytoprotection (ATP increase) was inactive: 6.88%.

Regarding `O=[As](O)(O)c1ccc([As](=O)(O)O)cc1`, under setting [1], the cytoprotection (ATP increase) is inactive: -1.02%.

On to `O=P(Nc1nccs1)(c1ccccc1)c1nc2ccccc2s1` (stereo not drawn), for which the cytoprotection (ATP increase) under setting [1] is inactive: 0.577%.

For `O=P(Nc1nccs1)(Oc1ccccc1)Oc1ccccc1`, under setting [1], the cytoprotection (ATP increase) is inactive: -25.7% [at 56.4 µM].

Turning to `CCOP1(=S)c2c(C)nn(CCC#N)c2N=C(c2ccccc2F)N1C` (stereo not drawn), the cytoprotection (ATP increase) under setting [1] is inactive: -5.47%.

As to `CS(=O)(=O)c1cc([N+](=O)[O-])c2no[n+]([O-])c2c1`, under setting [1], the cytoprotection (ATP increase) is inactive: 23.2%.

`CCN(CC)C(=S)SC(NC=O)C(Cl)(Cl)Cl` (stereo not drawn): the cytoprotection (ATP increase) under setting [1] is inactive: -23.1% [at 56.4 µM].

With `CC(C)NC(=O)NP(=O)(Oc1ccccc1)Oc1ccccc1`, the cytoprotection (ATP increase) under setting [1] is inactive: -5.9% [at 56.4 µM].

For `ClCCSc1nnc(-c2cccnc2)o1`, the cytoprotection (ATP increase) under setting [1] is inactive: 5.57%.

As to `O=[As]c1ccc(S(=O)(=O)NCCO)cc1` (stereo not drawn), the cytoprotection (ATP increase) under setting [1] was inactive: -2.36%.

Consider `CC(C)c1ccc(OP(=O)(Nc2ccccn2)Oc2ccccc2F)cc1` (stereo not drawn), for which the cytoprotection (ATP increase) under setting [1] was inactive: 26.7%.

For `[N-]=[N+]=NCC(N)=O`, the cytoprotection (ATP increase) under setting [1] is inactive: -3.06%.

With `Cc1ccc(OP(=O)(Nc2ccc([N+](=O)[O-])cn2)Oc2ccc(C)cc2)cc1`, the cytoprotection (ATP increase) under setting [1] is inactive: 17.4%.
